# Source: publication PMC10245146, “CNS4 causes subtype‐specific changes in agonist efficacy and reversal potential of permeant cations in NMDA receptors” (Pharmacology Research & Perspectives, 2023)
# Sequences of proteins named here, by UniProt entry; tags and fusion partners are left off. Residues count along the entry.
# UniProt Q12879, 23-1464: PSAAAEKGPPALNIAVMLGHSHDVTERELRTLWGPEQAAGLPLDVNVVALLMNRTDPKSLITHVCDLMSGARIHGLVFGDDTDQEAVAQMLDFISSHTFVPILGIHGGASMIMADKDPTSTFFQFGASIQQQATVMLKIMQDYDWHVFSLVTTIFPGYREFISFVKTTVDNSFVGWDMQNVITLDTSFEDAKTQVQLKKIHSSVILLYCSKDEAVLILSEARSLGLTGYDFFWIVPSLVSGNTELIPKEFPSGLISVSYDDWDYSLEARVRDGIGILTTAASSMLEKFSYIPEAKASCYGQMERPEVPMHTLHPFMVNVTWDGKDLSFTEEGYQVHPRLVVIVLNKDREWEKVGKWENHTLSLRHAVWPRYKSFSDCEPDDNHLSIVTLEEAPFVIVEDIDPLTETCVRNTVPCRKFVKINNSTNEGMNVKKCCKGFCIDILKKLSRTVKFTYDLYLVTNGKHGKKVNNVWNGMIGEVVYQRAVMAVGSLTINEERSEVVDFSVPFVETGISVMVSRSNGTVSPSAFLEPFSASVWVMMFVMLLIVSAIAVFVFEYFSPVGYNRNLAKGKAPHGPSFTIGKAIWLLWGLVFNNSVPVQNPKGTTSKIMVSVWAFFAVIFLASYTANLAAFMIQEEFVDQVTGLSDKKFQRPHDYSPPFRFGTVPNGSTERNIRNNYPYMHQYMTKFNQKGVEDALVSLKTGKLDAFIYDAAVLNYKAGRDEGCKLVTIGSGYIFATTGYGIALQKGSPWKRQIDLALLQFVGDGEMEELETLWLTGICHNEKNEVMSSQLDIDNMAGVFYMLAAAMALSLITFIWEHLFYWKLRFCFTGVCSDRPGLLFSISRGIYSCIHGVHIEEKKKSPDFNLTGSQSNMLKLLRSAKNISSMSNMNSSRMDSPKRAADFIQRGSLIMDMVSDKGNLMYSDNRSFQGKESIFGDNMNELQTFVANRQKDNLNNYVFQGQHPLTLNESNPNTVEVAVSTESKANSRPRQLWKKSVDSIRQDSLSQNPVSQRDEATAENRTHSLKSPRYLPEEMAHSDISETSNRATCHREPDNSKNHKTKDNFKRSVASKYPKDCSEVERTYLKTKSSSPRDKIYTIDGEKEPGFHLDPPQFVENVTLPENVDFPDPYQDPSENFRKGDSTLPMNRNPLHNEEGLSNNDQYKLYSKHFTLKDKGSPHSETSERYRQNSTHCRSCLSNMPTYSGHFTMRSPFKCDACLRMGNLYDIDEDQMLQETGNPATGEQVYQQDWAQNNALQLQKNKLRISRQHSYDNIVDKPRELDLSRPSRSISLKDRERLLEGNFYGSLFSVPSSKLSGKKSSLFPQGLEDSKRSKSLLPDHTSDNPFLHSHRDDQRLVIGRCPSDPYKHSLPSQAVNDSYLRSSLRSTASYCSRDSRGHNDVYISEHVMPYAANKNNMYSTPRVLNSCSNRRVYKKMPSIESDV
# UniProt O15399, 28-1336: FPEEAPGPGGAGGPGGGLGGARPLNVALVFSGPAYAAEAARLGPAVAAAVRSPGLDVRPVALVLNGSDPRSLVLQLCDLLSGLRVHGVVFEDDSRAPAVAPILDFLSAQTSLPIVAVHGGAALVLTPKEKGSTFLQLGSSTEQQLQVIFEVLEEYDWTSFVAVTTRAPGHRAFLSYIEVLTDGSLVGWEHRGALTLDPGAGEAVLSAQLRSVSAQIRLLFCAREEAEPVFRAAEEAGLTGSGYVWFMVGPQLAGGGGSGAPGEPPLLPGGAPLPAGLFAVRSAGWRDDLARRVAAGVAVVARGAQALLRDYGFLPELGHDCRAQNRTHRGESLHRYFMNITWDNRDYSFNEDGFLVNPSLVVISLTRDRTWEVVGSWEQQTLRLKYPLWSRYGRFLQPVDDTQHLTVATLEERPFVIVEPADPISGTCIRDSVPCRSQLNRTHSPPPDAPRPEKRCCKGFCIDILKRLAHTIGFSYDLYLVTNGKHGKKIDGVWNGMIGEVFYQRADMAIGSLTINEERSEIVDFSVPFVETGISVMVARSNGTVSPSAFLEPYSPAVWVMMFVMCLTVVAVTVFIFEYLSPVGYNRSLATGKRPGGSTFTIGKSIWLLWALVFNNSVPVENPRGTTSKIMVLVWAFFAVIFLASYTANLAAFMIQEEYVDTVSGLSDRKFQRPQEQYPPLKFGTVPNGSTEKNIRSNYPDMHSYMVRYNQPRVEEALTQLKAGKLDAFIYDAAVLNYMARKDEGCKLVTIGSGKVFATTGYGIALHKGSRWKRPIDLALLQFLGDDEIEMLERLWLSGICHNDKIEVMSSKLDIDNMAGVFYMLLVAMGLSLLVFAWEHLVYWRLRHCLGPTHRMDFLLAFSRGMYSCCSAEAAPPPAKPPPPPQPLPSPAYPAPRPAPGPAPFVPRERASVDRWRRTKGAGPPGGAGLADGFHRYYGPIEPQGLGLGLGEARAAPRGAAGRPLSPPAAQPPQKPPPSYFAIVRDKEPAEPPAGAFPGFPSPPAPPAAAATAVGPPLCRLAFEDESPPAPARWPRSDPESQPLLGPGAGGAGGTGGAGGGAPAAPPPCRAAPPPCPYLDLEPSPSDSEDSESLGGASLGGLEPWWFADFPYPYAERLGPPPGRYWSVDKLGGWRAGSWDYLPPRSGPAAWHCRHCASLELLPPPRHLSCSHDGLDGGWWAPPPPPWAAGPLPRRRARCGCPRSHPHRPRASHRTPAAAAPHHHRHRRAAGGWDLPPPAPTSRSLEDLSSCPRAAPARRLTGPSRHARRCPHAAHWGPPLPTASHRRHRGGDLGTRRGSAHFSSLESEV
# Where two headings read alike, the source gives them in different places.
# What was measured:
# GluN1/2A NMDA receptors = target: T1, GluN1/2A NMDA receptors (UniProt P35439+Q12879); experiment: TEVC antagonist block of agonist-induced currents, 1/2A; type: cell-based; settings: read-out: Memantine IC50
# T1 construct: expressed in transfected cells; host or cells: Xenopus oocytes (cRNA injection)
# Procedure: (§1) Electrophysiological responses were measured using a standard two‐microelectrode voltage‐clamp workstation (Warner Instruments model OC‐725C) designed to provide a fast clamp of large cells. The recording buffer contained 116 mM NaCl, 2 mM KCl, 0.3 mM BaCl2, and 5 mM HEPES, pH 7.4. Response magnitude was determined in Xenopus oocytes expressing different NMDA receptor subunits (GluN1/2A, 1/2B, 1/2C, 1/2D, and 1/2A/2B) by the steady plateau response elicited by bath application of different agonist concentrations. […] All data points were obtained from the steady state currents unless stated otherwise. Dose–response relationships were fit to an appropriate curve‐fitting equation using GraphPad Prism‐7. Non‐linear regression was used to calculate EC50, IC50, and fold change or percentage maximal response. Curves were fit using the following equations as performed in the previous studies, [37]: Y=100/1+10^LogEC50−XorY=Bottom+Top−Bottom/1+10^LogEC50−X . Statistical significance was determined at the overall alpha level 0.05, using appropriate statistical methods as described in all figure captions. Technical and biological replicates are explicitly mentioned in each figure legend, as n = X (Y). X represents technical repeats (number of traces) and Y represents biological repeats (number of oocytes or HEK293T cells studied). […]
# GluN1/2D NMDA receptors = target: T2, GluN1/2D NMDA receptors (UniProt O15399+P35439); experiment: TEVC antagonist block of agonist-induced currents, 1/2D; type: cell-based; settings: read-out: Memantine IC50
# T2 construct: host or cells: Xenopus oocytes (cRNA injection)
# Procedure: as §1
structure (smiles),measurement,setting,value
CC12CC3CC(C)(C1)CC(N)(C3)C2 [Memantine],IC50,"GluN1/2A NMDA receptors; with 30 μM CNS4, n = 10 (8), p = .0407",870 ± 90 nM
same,IC50,"GluN1/2A NMDA receptors; without CNS4, n = 11 (10)",640 ± 30 nM
same,IC50,"GluN1/2D NMDA receptors; with 30 μM CNS4, n = 9 (7), p = .3645",640 ± 150 nM
same,IC50,"GluN1/2D NMDA receptors; without CNS4, n = 13(10)",500 ± 60 nM
